Laboratory results reported in ChEMBL document CHEMBL2321724 (J Med Chem, 2013).

The chains behind the UniProt entries cited, without tags or fusion partners. Where a name states a change or a piece, a line headed by the entry shows the natural chain unless it says otherwise.
UniProt Q12809: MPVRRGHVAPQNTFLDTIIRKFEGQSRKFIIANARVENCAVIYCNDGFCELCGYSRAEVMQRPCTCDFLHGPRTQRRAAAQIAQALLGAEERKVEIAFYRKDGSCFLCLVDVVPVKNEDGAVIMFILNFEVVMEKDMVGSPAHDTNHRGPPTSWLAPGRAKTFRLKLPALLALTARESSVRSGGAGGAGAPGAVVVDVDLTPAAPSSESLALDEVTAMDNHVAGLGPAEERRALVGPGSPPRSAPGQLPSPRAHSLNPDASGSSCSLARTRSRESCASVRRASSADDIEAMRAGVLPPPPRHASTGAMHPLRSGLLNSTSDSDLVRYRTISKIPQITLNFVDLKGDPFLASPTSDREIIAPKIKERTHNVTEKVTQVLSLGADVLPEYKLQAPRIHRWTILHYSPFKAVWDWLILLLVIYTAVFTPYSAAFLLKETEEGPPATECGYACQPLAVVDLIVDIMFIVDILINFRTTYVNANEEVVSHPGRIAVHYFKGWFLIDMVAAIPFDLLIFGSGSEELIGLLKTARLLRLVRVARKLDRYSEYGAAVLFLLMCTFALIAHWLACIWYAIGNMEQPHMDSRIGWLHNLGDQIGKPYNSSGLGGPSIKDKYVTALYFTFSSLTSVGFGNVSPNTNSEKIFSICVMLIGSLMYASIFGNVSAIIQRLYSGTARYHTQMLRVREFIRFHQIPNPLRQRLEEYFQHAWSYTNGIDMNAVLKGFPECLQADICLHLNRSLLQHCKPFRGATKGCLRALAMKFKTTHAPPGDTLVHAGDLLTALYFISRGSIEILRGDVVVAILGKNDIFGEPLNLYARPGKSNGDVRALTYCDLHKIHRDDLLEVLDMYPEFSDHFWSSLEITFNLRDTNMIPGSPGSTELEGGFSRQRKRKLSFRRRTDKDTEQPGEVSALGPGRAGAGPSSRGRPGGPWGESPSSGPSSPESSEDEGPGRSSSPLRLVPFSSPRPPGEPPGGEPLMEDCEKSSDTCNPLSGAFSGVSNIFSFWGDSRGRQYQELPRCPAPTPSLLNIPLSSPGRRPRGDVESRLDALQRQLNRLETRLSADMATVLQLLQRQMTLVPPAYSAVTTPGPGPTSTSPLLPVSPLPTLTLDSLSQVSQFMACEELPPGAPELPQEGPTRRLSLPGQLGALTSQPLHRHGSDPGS

These molecules were tested against Voltage-gated inwardly rectifying potassium channel KCNH2 (Homo sapiens, UniProt Q12809) (assay: Displacement of [3H]astemizole from human ERG K+ channel expressed in HEK293 cells by scintillation spectrophotometric analysis).

SMILES	IC50
COc1ccc(OCCCc2cccc(CCCOc3ccc(OC)cc3)[n+]2C)cc1	158 nM
c1ccc(OCc2cccc(COc3ccccc3)n2)cc1	74 nM
Cc1ccc(Cc2cccc(COc3ccc(C)cc3)n2)cc1	> 10 nM
Cc1ccc(Cc2cc[n+](C)c(COc3ccc(C)cc3)c2)cc1	346 nM
Cc1ccc(OCc2cccc(COc3ccc(C)cc3)[n+]2C)cc1	53 nM
Cc1ccc(CCc2cccc(CCc3ccc(C)cc3)[n+]2C)cc1	24 nM
CCCCCCCCc1cccc(CCCCCCCC)[n+]1C	15 nM
